From publication PMC8725944, “Design and synthesis of chromone-nitrogen mustard derivatives and evaluation of anti-breast cancer activity” (Journal of Enzyme Inhibition and Medicinal Chemistry, 2021)

How the values were obtained:
[1] = system: TNBC cell line MDA-MB-231; test: CCK-8 assay, antiproliferative activity against MDA-MB-231; settings: read-out: IC50 MDA-MB-231; CCK-8, 72 h, mean ± SD of three experiments
[2] = system: human mammary gland tumour cell line MCF-7; test: CCK-8 assay, antiproliferative activity against MCF-7; settings: read-out: IC50 MCF-7; CCK-8, 72 h, mean ± SD of three experiments

Structure (SMILES): O=C(O)c1ccc(N(CCCl)CCCl)cc1
- IC50 [1]: > 20 µM
- IC50 [2]: 12.1 µM
